The values below come from publication PMC7367873, “Dissecting the sequence determinants for dephosphorylation by the catalytic subunits of phosphatases PP1 and PP2A” (Nature Communications, 2020).

In test [1] the test system is GFP-14-3-3β and its binding proteins. Put plainly: GFP-14-3-3β co-IP with LC-MS/MS label-free quantification, untreated versus PP1c-treated. The arrangement: species or system human. On the procedure:
(§1) HeLa Kyoto cells expressing transiently transfected pEGFP(C1)-14-3-3β or pEGFP(C1) control plasmid, were incubated with 20 nM Calyculin A (# 9902 S, Cell Signaling Technology) for 12 min. Cells were washed twice on ice with cold PBS and after addition of 500 µL lysis buffer (100 mM NaCl, 10 mM Tris, 0.1% IGEPAL, 1 mM EDTA, 1 mM EGTA, 20 nM Calyculin A, 1x cOmplete Mini protease inhibitor cocktail (Sigma), 1 mM DTT, 1 mM MnCl2) cells were scraped from plates, lysed by 10 pushes through an injection needle (21 G, BD) and the insoluble fraction was pelleted by centrifugation (10 min, 10^4 rcf, 4 °C). Supernatants were then subjected to incubation with 1 µM recombinant phosphatase or buffer for 1 h at 30 °C. Next, we subjected samples to immunoprecipitation using α-GFP nanobodies covalently coupled to agarose beads (2 h, 4 °C, obtained from the EMBL PEPcore Core Facility). Beads were then washed three times with lysis buffer and samples were eluted in 1x LDS sample buffer (Thermo Fisher Scientific) by heating to 70 °C for 10 min.
(§2) The samples were then reduced with 25 mM dithiothreitol (10 min at 70 °C) and alkylated with 55 mM chloroacetamide (room temperature, 30 min, in the dark). Proteins were run on a precast 4–12% NuPAGE gel (ThermoFisher Scientific) for about 1 cm to concentrate the sample prior to in-gel tryptic digestion, which was performed according to the standard procedures. The peptides obtained were dried to completeness and resuspended in 12 µL of buffer A (0.1% FA), and 5 µL of sample were injected per MS measurement. The experiment was carried out in three independent replicates.
(§3) The samples were analyzed by LC-MS/MS on a Dionex Ultimate 3000 nano-HPLC coupled online to a Fusion Lumos Tribrid mass spectrometer (Thermo Fisher Scientific). Peptides were delivered to a trap column (75 µm × 2 cm, packed in-house with 5 µm C18 resin; Reprosil PUR AQ, Dr. Maisch) and washed using 0.1% FA at a flow rate of 5 µL/min for 10 min. Subsequently, peptides were transferred to an analytical column (75 µm × 45 cm, packed in-house with 3 µm C18 resin; Reprosil Gold) applying a flow rate of 300 nL/min and separated using a 60 min linear gradient from 4% to 32% LC solvent B (0.1% FA, 5% DMSO in ACN) in LC solvent A (0.1% FA in 5% DMSO). The eluate from the analytical column was sprayed via a stainless steel emitter (Thermo Fisher Scientific) at a source voltage of 2.1 kV into the mass spectrometer. The transfer capillary was heated to 275 °C. The Fusion Lumos was operated in positive ionization mode and data-dependent acquisition (DDA), automatically switching between MS1 and MS2 spectrum acquisition. Full scan MS1 spectra were recorded in the Orbitrap from 360 to 1300 m/z at a resolution of 60k (automatic gain control (AGC) target value of 4e5 charges, maximum injection time (maxIT) of 50 ms). Up to 20 peptide precursors were isolated (isolation window, 1.7 m/z; maximum injection time, 25 ms; and AGC value, 1e5), fragmented by high-energy collision-induced dissociation (HCD) using 30% normalized collision energy (NCE), and analyzed at a resolution of 15k in the Orbitrap. Precursor ions that were singly charged, unassigned, or with charge states >6+ were excluded. The dynamic exclusion duration of fragmented precursor ions was 20 s.
(§4) Peptide and protein identification and LFQ were performed using MaxQuant software (version 1.6.1.0)[64] by searching the data against all canonical protein sequences as annotated in the Swissprot reference database (human proteins only, 20193 entries, downloaded 22 March 2016, internally annotated with PFAM domains) using the embedded search engine Andromeda[65]. The MaxQuant search was performed using two variable modifications; oxidation of methionine and N-terminal protein acetylation. Carbamidomethylation on cysteines was specified as a fixed modification. Trypsin (Trypsin/P) was specified as the proteolytic enzyme with up to two allowed missed cleavage sites. […]

Another test has as its system GFP-14-3-3β. Briefly: GFP-14-3-3β co-IP with LC-MS/MS, untreated GFP-14-3-3β versus GFP control (14-3-3 interactome). In kind it is binding, human. On the procedure: as §1, §2, §3, §4
The mark [2] stands for this setting: PP1 vs untreated, label-free quantification.
The mark [3] stands for this setting: untreated vs GFP, label-free quantification.

With PRRC2C, in test [1] (setting [2]), the “Difference (log2), PP1 vs untreated” value worked out at 0.864 log2. Also, the “Difference (log2), untreated vs GFP” value in the test with GFP-14-3-3β (setting [3]) was found to be 0.6801 log2.
On to RPA1, for which the “Difference (log2), PP1 vs untreated” value in test [1] (log2 difference, pairwise comparison PP1 vs untreated, label-free quantification, 3 replicates each) is given as 1.304. In the test on GFP-14-3-3β (log2 difference, pairwise comparison untreated vs GFP, label-free quantification, 3 replicates each), the “Difference (log2), untreated vs GFP” value is recorded as -2.268.
As for IGF2BP3, the Difference in test [1] (GFP-14-3-3β co-IP, PP1vsUntrted, Perseus raw output, LFQ intensity difference) is 1.11; with GFP-14-3-3β (UntrtedvsGFP, Perseus raw output, LFQ intensity difference), -0.03145. For the same substance, in test [1] (setting [2]), the “Difference (log2), PP1 vs untreated” value worked out at 1.11 log2. For the same substance, the “Difference (log2), untreated vs GFP” value with GFP-14-3-3β (setting [3]) is -0.03145 log2.
As to RAF1, in test [1] (pairwise comparison PP1 vs untreated, student's t-test, 3 replicates each, LC-MS/MS label-free quantification), the “Difference (log2), PP1 vs untreated” value is -2.805 log2. Moreover, the “Difference (log2), untreated vs GFP” value in the test with GFP-14-3-3β (pairwise comparison untreated GFP-14-3-3β vs GFP, student's t-test, 3 replicates each, LC-MS/MS label-free quantification) is given as 3.818 log2.
With PRRC2B, in test [1] (PP1 vs untreated, LFQ intensities, replicates 1-3), the “Difference (log2), PP1 vs untreated” value is -1.993 log2. The “Difference (log2), untreated vs GFP” value in the test on GFP-14-3-3β (untreated vs GFP, LFQ intensities, replicates 1-3) is given as 0.5414 log2.
Turning to IGF2BP1, the “Difference (log2), PP1 vs untreated” value in test [1] (setting [2]) is listed as 1.142 log2. Moreover, the “Difference (log2), untreated vs GFP” value in the test on GFP-14-3-3β (setting [3]) is 0.572 log2.
On to CDK1, for which the “Difference (log2), PP1 vs untreated” value in test [1] (GFP-14-3-3β co-IP LC-MS/MS, PP1 vs untreated, student's t-test, label-free quantification, 3 replicates each) is -0.4882 log2. Further, the “Difference (log2), untreated vs GFP” value in the test with GFP-14-3-3β (GFP-14-3-3β co-IP LC-MS/MS, untreated vs GFP, student's t-test, label-free quantification, 3 replicates each) amounted to 1.267 log2.
